Experimental data: patent US20080269247A1, “Chemokine Inhibiting Piperazine Derivatives and Their Use to Treat Myocarditis” (priority 2003, published 2008)
Values joined by “and” are separate entries in the source; they are usually repeats but may differ in a detail not shown here. Equal entries are not always repeated.

Tested on: Male Lewis rats
Conditions: rat, in vivo

C[C@@H]1CN(Cc2ccc(F)cc2)CCN1C(=O)COc1ccc(Cl)cc1NC(N)=O [(2R)-1-((4-chloro-2-(ureido)phenoxy)methyl)carbonyl-2-methyl-4-(4-fluorobenzyl)piperazine]
Severity of EAM: reduced the severity of EAM
Cardiac function, FS (echocardiogram) (sc, 50 mg/kg): 46.7±3.6% and 39.4±4.1%
